Experimental data taken from patent US20200325490A1 (AARHUS UNIVERSITET, published 2020).

Key:
[1] = biological target: wheat TaPAPhy phytase (EC 3.1.3.26)
[2] = biological target: T1, Aspergillus ficuum phytase (EC 3.1.3.8), P34752
T1 chain: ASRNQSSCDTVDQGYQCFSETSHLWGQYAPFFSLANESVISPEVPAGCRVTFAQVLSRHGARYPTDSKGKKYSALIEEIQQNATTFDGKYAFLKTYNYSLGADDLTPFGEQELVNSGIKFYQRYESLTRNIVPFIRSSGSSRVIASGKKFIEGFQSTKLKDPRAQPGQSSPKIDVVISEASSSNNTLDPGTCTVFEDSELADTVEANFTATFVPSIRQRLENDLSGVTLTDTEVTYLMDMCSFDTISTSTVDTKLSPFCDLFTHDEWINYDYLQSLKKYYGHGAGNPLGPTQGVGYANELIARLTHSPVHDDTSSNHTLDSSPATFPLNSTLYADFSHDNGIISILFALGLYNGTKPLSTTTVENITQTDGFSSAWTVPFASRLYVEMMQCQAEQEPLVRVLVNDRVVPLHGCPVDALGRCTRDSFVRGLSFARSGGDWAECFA

B1: HvNEP-1 (Hordeum vulgare nepenthesin-1-type aspartic endoprotease), ΔHvNEP-1 with C-terminal His6 tag, expressed in Pichia pastoris KM71H (enzyme)
chain: DADTPKVAMASSGAGSSFRLAAHHDHALSRSDDGFLHVQSRLDNLLPSEANVTTLRPPVASPLDMAFSVVVGLGSGKGRHDYNLKLDASGSLTWVQCKPCNPKQPQRGPLFDPKASSTFQQVAGTSQICHPPYPMEPAGQQCAFHLSGMGGMSVHGYVAMENLTMGPEAMKEFVFGCSHSTGHFNSHGTFAGVAAMGKMPTSLVMQVAARGQTRFSYCLFSGGASRHGFLRFGADVPSRSGLRTTKILPALDAHESQYYVSLVGISLDAKRLTGVRPEMFARQRGGEGGCVVDPGTPLTVLVREAYRVVEDAVWSDLRRNKAERVQREGYGLCVRKTAEIKRHLQSLSLHFAEETARLVVKPEQLFVAVESRLHGAALCLAMRPGERTVIGALQQVDTRFVYDLKDAKLSFASEPCSQDTAGVDHHHHHH
notes: also called HvNEP-1 protease; truncated HvNEP-1
[1]
  residual phytase activity: residual TaPAPhy phytase activity was first reduced at phytase: protease ratios of 1:100
[2]
  residual phytase activity: residual phytase activity of A. ficuum was reduced at phytase: protease ratios of 1:500
